Measured values reported in publication PMC10920890, “Biosensor and machine learning-aided engineering of an amaryllidaceae enzyme” (Nature Communications, 2024).

Test system: Oc1ccc(CCNCc2ccc(O)c(O)c2)cc1
Assay: purified protein
Conditions: 500 µM SAM, 2 mM CaCl2, PBS pH 7.5, 37 °C
[1] = Km calculated as kcat/(kcat/Km)
[2] = fit with substrate inhibition, limits only

Substance	Km [1]	kcat [1] [s⁻¹]	kcat/Km [1] [M⁻¹ s⁻¹]	kcat [2] [s⁻¹]	kcat/Km [2] [M⁻¹ s⁻¹]
Nb4OMT (norbelladine 4'-O-methyltransferase) (Narcissus aff. pseudonarcissus MK-2014)	62 (37–104) μM	1.22	19700		
Nb4OMT (norbelladine 4'-O-methyltransferase) (Narcissus aff. pseudonarcissus MK-2014; A53M/E36P/G40E)				> 2	> 23300
Nb4OMT (norbelladine 4'-O-methyltransferase) (Narcissus aff. pseudonarcissus MK-2014; A53M)				> 3.17	> 35000
